Measured values reported in paper PMC4965013, “Open Source Drug Discovery with the Malaria Box Compound Collection for Neglected Diseases and Beyond” (PLoS Pathogens, 2016).
pKi: −log10 of the molar value.

Amino acid sequences for entries named in this document (tags omitted). A change or cut given only in a name is not applied to a line headed by its entry.
UniProt P11229: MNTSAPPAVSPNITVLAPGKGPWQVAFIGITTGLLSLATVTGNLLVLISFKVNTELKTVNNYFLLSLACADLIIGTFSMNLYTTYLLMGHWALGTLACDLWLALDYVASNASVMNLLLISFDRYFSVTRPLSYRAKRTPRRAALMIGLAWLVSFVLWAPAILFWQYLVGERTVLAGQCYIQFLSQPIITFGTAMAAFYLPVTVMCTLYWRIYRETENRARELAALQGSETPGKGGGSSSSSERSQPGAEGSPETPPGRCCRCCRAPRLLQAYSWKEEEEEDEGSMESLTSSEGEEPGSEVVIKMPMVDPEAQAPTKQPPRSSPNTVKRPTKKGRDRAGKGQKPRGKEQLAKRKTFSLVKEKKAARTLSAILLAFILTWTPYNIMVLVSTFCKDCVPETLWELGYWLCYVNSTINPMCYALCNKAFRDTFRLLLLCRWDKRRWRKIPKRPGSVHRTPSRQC

Target: T1, M1 receptor (Homo sapiens, UniProt P11229)
T1 construct: host or cells: CHO (ATCC), pcDNA3
Assay: M1 radioligand binding
Conditions: reference compound

`CC(C)[N+]1(C)[C@@H]2CC[C@H]1C[C@@H](OC(=O)C(CO)c1ccccc1)C2` (stereo partly shown) [Ipratropium] was tested, and the pKi was 9.09.
